Laboratory results: patent publication US20110008345A1

Legend:
Assay in all cases: cell-based or functional assay
[1] = target: EGFR expressed on the surface of A431 cells (UniProt P00533)
[2] = target: recombinant E. coli-expressed human IL-13 (human) (UniProt P35225)
[3] = target: recombinant human TNF-alpha (human) (UniProt P01375)

Anti-EGFR potency (EGFR kinase assay) [1] [nM] | EC50 (IL-13 cell-based neutralisation assay, HEK Blue-STAT6) [2] [nM] | Anti-EGFR potency (EGFR kinase assay, A431 cells) [1] [nM] | potency (MRC-5/TNF assay, IL-8 secretion) [3] [nM] | Substance
9.03 | 1.65 | – | – | DMS4029 (anti-EGFR/anti-IL-13 mAbdAb) (bispecific antibody)
– | – | 39.1 | 0.003 | dual targeting anti-TNF/anti-EGFR mAbdAb (Example 10) (bispecific antibody)
